Measurements as given in patent US6583106B2, “Monohydric alcohol derived urethanes and their use in cosmetic formulations” (Alzo International, Inc., priority 1997, dated 2003).

Key:
[1] = Urethane stability study (hydroxyl value after heat/reflux and pH variation); type: physicochemical; settings: before treatment; A.O.C.S. hydroxyl value method
Method: (§1) The following stability study was conducted to determine the structural stability of dimeric urethane compounds according to the present invention compared to mono- and diesters under conditions of pH and thermal variation. Because the decomposition products of the mono- and diesters are alcohol and acid, the degree of decomposition may be accurately determined by measuring the acid value. The measurable decomposition product of the urethane compound is alcohol, which is accurately measured by determining the hydroxyl value.
IV. Procedure for Urethane Stability
The following steps were performed on each urethane sample:
(1) Run hydroxyl value test.
(2) Follow steps 2-8 for mono- and diester (above).
(3) Run hydroxyl value test on solution in beaker A.
(4) Perform step 10, from above.
(5) Run hydroxyl value test on solution in Beaker B and Beaker C.
Under conditions of this study, that is,
“A”: Product in alcoholic/water solution, heat
“B”: Product in alcoholic/water solution, heat, pH=2.5-3.5
“C”: Product in alcoholic/water solution, heat, pH=13-14

[2] = Mono- and diester stability study (acid value after heat/reflux and pH variation); type: physicochemical; settings: before treatment; A.O.C.S. T.M. #Cd 3a-63
Method: as §1
III. Procedure for Determining Mono- or Diester Stability
The following steps were performed on each ester sample:
(2) Into three ground glass Erlenmeyer flasks, weigh a 20 g sample of the ester.
(3) Into each flask, pipette 50 ml of a neutralized (to phenolpthalein end point) Solution of 70% Isopropanol in water. Boiling stones are added.
(4) Connect flask A to a 4-5 ft. Reflux condenser and heat so that it refluxes 1 ft. High (to approximately 80-90° C.). After connecting flasks A, B and C, proceed to step (7).
(5) Add 10% Aq. Hcl solution to adjust pH of solution in flask B to pH=2.5-3.5. See step (4).
(6) Add 20% Aq. KOH Solution to adjust pH of solution in Flask C to pH=13-14. See step (4).
(8) For each flash, A, B and C, disconnect condenser. Pour Alcoholic solution into wide diameter beaker (A, B and C). Add spin bar. […]

ACID V INITIAL [2] | Substance | HYDROXYL V INITIAL [1]
– | Eicosanyl alcohol dimer with IPDI [Monoderm I-24] | 9.3 mg KOH/g
0.91 mg KOH/g | Isocetyl salicylate [ICSA] | –
